The subject of one experiment is human neutrophils. Nature of the experiment: Binding studies on the role of complement proteins in serum, neutrophils. The class given is cell-based. The settings on record: compstatin/control peptide 20 or 100 μM; methylamine 0.67%; 166-32 20 μg/mL; HSA 10%. The procedure:
(§1) To determine the role of complement proteins in binding, experiments were performed as described above except for using serum containing 10% HI, compstatin-treated or methylamine (MA)-treated, EGTA- or EGTA+MgCl2 (MgEGTA)-treated, or factor D-blocked serum. Heat-inactivated (HI) serum was prepared by incubating serum in a 56° C. water bath for 30 minutes. […] Treatment of serum with methylamine (MA) was done by incubating serum with 0.67% of methylamine for 2.5 hours at 37° C., followed by three washes with DPBS using Amicon centrifugal filter unit with a 3K MW cut-off (Millipore, Billerica, Mass.). DPBS-treated serum was prepared in the same manner and used as control serum for MA-treated serum. For blocking of factor D in the serum, 166-32 at concentration 20 μg/mL was incubated with serum on ice for 30 minutes, and then used for binding studies. For binding experiments in the presence of EGTA or MgEGTA, serum was incubated with 10 mM EGTA with or without 10 mM MgCl2 for 10 minutes at room temperature. The untreated and EGTA/MgEGTA-treated serum was then used to pre-treat PGG and perform binding studies as described earlier.

A further experiment concerns human monocytes. Nature of the experiment: Binding studies on the role of complement proteins in serum, monocytes. The settings on record: compstatin/control peptide 20 or 100 μM; methylamine 0.67%; 166-32 20 μg/mL; HSA 10%. The class given is cell-based. The procedure:
as §1

Consider “HSA: human serum albumin, non-specific serum protein control”, for which the “Effect of the agent added to serum or media on binding of PGG β-glucan” value in the experiment on human neutrophils and in the experiment on human monocytes was “did not restore soluble β-glucan binding to cells” throughout.

(Values after patent US10092657B2, “Opsonized β-glucan preparations and methods” (Biothera, Inc., priority 2011, dated 2018).)
